Screens: PubChem BioAssay, several laboratories
DSG3 Ab inh = blocks pemphigus antibody binding to human desmoglein-3. AID 588358. DSG3-coupled beads, scFv-anti-DSG3-GFP binding, flow cytometry; hits give low values. actives 0.48% (n = 310,000). binding (percent of control), % at 10 µM;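 active = binding more than 3 SD below its plate's average and above zero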;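 note: hits lower antibody fragment binding to DSG3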
TbMetRS inhib = Trypanosoma brucei MetRS inhibition | purified T. brucei MetRS, ATP depletion, Kinase-Glo luminescence | inhibition, % at 11.9 µM | actives 0.4% (n = 360,000) | AID 624268;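 active = inhibition above a per-plate cutoff of the control wells' mean inhibition plus 3 SD, cut at about 5.5% in these data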;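 note: 0% = DMSO wells median and 100% = median of wells with control inhibitor compound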
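assay system = parasite MetRS enzyme | timing = 15 min preincubation, 2 h reaction, all 25 °C | evaluation = percent inhibition relative to median high and low control wells | medium = HEPES buffer containing pyrophosphatase, BSA, spermine, DTT | compound = single dose, 11.9 µM final nominal, 0.9% final DMSO | detection = Kinase-Glo luminescence, ATP depletion format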
Arrestin-AP2 inh = human beta-arrestin and AP2 interaction inhibition. FITC-arrestin peptide / GST-AP2 beads, flow cytometry; AP2 beta2 appendage carries R879A mutation. inhibition, % at 10 µM. actives 0.31% (n = 340,000);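 active = inhibition above a set limit, near 3 SD of compounds lacking own fluorescence, cut at about 54% in these data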;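 note: plate controls were DMSO wells for no effect and 5 µM unlabelled arrestin peptide for full effect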
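System: GST-tagged AP2 beta2-adaptin appendage (R879A) on 4 µm glutathione beads / Reagent: FITC-arrestin peptide, 50 nM / Detection: HyperCyt-sampled flow cytometry, FL1 channel, ex 488/em 535 nm / Timing: 12 min plus 1 h, RT / Buffer or medium: PBS plus Tween 20 (0.05%) and BSA (0.1%)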
Yeast UUG start = modulators of start codon recognition fidelity in yeast; S. cerevisiae UUG-firefly luciferase reporter, luminescence/redox ratio; activity score, % at 18.7 µM; 0.13% of 350,000 active;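 active = replicate mean at a twofold rise or more, about +100% in these data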;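 also: firefly luciferase made from a UUG start codon reports start codon fidelity; reporter light over untreated wells divided by growth signal over untreated wells; some hits fall short of that in this replicate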
Rce1 inh = inhibitors of yeast Ras-converting enzyme; AID 2563; actives 0.27% (n = 290,000); yeast membranes, quenched prenylated peptide cleavage fluorescence; calls only;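 active = fall in fluorescence gain of 50% or more versus controls, with final raw signal at or below 3038400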;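 note: plate controls were neutral control wells for no effect and wells lacking membranes for full effect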
Tb MetRS conf = Trypanosoma brucei MetRS inhibition confirmed. shares compounds with TbMetRS inhib. T. brucei MetRS enzyme, luminescence (ATP depletion). inhibition, % at 11.9 µM. actives 93% (n = 1,400). AID 624412; in the data active = inhibition above about 7%
Jurkat cytotox = kills Jurkat cells in T. brucei MetRS counterscreen | inhibition, % at 8.3 µM | actives 12% (n = 1,400) | AID 624413 | shares compounds with TbMetRS inhib | Jurkat cells viability, ATP luminescence; in the data active = inhibition above about 15%;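 note: 0% = vehicle and 100% = reference inhibitor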
TbMetRS FP orth = inhibits T. brucei methionyl tRNA synthetase in orthogonal FP test; shares compounds with TbMetRS inhib; purified T. brucei MetRS, fluorescence polarization; inhibition, % at 11.9 µM; actives 44% (n = 1,400); in the data active = inhibition above about 17%;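 note: 0% = vehicle wells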
* = called active by the depositor; i = inactive; · = not tested or not shown. Only some compounds are listed: those with a hit (about 1.2% of all), similar ones and a draw of the others.

Compound	DSG3 Ab inh	TbMetRS inhib	Arrestin-AP2 inh	Yeast UUG start	Rce1 inh	Tb MetRS conf	Jurkat cytotox	TbMetRS FP orth
CN(c1ccc(OC(=O)c2ccc(-n3cncn3)c([N+](=O)[O-])c2)cc1)S(=O)(=O)c1ccccc1	·	5	-3	-23	·	·	·	·
COc1ccc(C(=O)NCCc2ccccc2)cc1[N+](=O)[O-]	98	0	-15	-17	i	·	·	·
CCc1ccc(NC(=O)c2ccc(-n3cncn3)c([N+](=O)[O-])c2)cc1	99	13*	-13	-26	i	39*	1	20*
COC(=O)c1ccc(-n2cncn2)c([N+](=O)[O-])c1	102	16*	-12	·	i	35*	-5	6
COC(=O)c1ccc(-n2cncn2)c(F)c1	93	0	-5	-13	i	·	·	·
Cc1ccc(NC(=O)CN(C)C(=O)c2ccc(C(F)(F)F)cc2)cc1	108	6.2*	7	·	i	26*	6	10
COc1ccc(NC(=O)c2ccc(-n3cncn3)c([N+](=O)[O-])c2)cc1OC	94	15*	32	-18	i	59*	3	33*
COc1ccc(C(=O)Nc2ccncc2)cc1[N+](=O)[O-]	101	0	-1	-20	i	·	·	·

(continued)
Compound	DSG3 Ab inh	TbMetRS inhib	Arrestin-AP2 inh	Yeast UUG start	Rce1 inh	Tb MetRS conf	Jurkat cytotox	TbMetRS FP orth
C[C@H](CO)N1C[C@H](C)[C@H](CN(C)S(=O)(=O)c2cn(C)cn2)Oc2ccc(NC(=O)CCCCCC(=O)Nc3ccccc3N)cc2CC1=O	·	·	·	4	·	·	·	·
C[C@@H]1CN([C@@H](C)CO)C(=O)c2cc(NC(=O)Cc3ccccc3)ccc2O[C@@H](C)CCCCO[C@H]1CN(C)S(=O)(=O)c1cccs1	·	·	·	-10	·	·	·	·
Cc1noc(C)c1NC(=O)Nc1cccc2c1O[C@@H](CN(C)C(=O)Nc1ccc(C(F)(F)F)cc1)[C@H](C)CN([C@@H](C)CO)C2=O	·	·	·	-7	·	·	·	·
Cc1ccc(S(=O)(=O)Nc2ccc3c(c2)CC(=O)N([C@H](C)CO)C[C@@H](C)[C@@H](CN(C)Cc2ccccc2)O3)cc1	·	·	·	-4	·	·	·	·
Cc1cccc(NC(=O)CNC(=O)c2ccc(-n3cncn3)c([N+](=O)[O-])c2)c1C	102	19*	-12	-4	i	51*	-6	27*
COc1ccc(NC(=O)c2ccc(-n3cncn3)c([N+](=O)[O-])c2)cc1	98	6.2*	6	-18	i	22*	1	8
Cc1ccc(NC(=O)c2ccc(-n3cccn3)c([N+](=O)[O-])c2)cc1	99	0	36	-11	i	·	·	·
O=C(Cn1c(CC(=O)N2CCOCC2)nc2ccccc21)Nc1ccc2c(c1)OC(F)(F)O2	99	25*	0	4	i	41*	9	20*

The list goes on:
Compound	DSG3 Ab inh	TbMetRS inhib	Arrestin-AP2 inh	Yeast UUG start	Rce1 inh	Tb MetRS conf	Jurkat cytotox	TbMetRS FP orth
C[C@H]1CN([C@@H](C)CO)C(=O)Cc2cc(NC(=O)C3CCCCC3)ccc2O[C@H]1CN(C)Cc1ccccc1	·	·	·	6	·	·	·	·
CCc1ccc(C2C(=O)c3ccccc3C2=O)cc1	105	6.3*	12	-32	i	3	7	-7
COc1cc(/C=N/NC(=O)CSc2cc(C)c(Br)cc2C)ccc1O	·	0	21	-11	i	·	·	·
Cc1cc(SCC(=O)N/N=C/c2ccc(O)c(O)c2O)c(C)cc1Br	98	76*	27	-1	i	103*	56*	84*
CO[C@@H]1CN(C)C(=O)c2ccc(NC(=O)Cc3ccccc3)cc2OC[C@@H](C)N(C(C)=O)C[C@@H]1C	·	·	·	11	·	·	·	·
O=C(NCCNc1ccc(Cl)cc1[N+](=O)[O-])c1ccccc1F	101	2	-5	-13	i	·	·	·
Clc1ccc2c(NCc3ccccc3)ccnc2c1	114	7.9*	1	-10	i	20*	19*	5
CCN(CC)CCNc1ccnc2cc(Cl)ccc12	130	0	-6	7	i	·	·	·

Next section.
Compound	DSG3 Ab inh	TbMetRS inhib	Arrestin-AP2 inh	Yeast UUG start	Rce1 inh	Tb MetRS conf	Jurkat cytotox	TbMetRS FP orth
O=C(NCCNc1ccnc2cc(Cl)ccc12)c1ccccc1F	115	8.7*	10	-2	i	13*	47*	10
O=S(=O)(c1ccc2c(c1)OCCO2)N1CCC(c2nc3ccc(Cl)cc3[nH]2)CC1	104	12*	6	-1	i	17*	24*	12
Cc1ccc2nc(C3CCCN(C(=S)Nc4ccccc4C)C3)[nH]c2c1 (stereo not given)	98	6.8*	7	-19	i	46*	3	22*
Cc1ccc2nc(C3CCN(S(=O)(=O)c4ccc5ccccc5c4)CC3)[nH]c2c1	105	48*	8	-5	i	69*	4	36*
O=S(=O)(c1ccc2c(c1)OCCO2)N1CCC(c2nc3ccccc3[nH]2)CC1	·	-1	15	·	i	·	·	·
COCC(=O)N1CCCCN2[C@@H](CO)[C@H](c3ccc(-c4cccc(C)c4)cc3)[C@@H]2C1	·	·	·	-3	·	·	·	·
C[C@H](O)C#Cc1cnc2c(c1)C(=O)N([C@H](C)CO)C[C@@H](C)[C@H](CN(C)Cc1ccccn1)O2	·	·	·	-5	·	·	·	·
COc1cc(CNCc2ccccn2)ccc1OCc1ccc(Cl)c(Cl)c1	·	-1	28	-55	i	·	·	·

(further entries)
Compound	DSG3 Ab inh	TbMetRS inhib	Arrestin-AP2 inh	Yeast UUG start	Rce1 inh	Tb MetRS conf	Jurkat cytotox	TbMetRS FP orth
COc1cc(CNCCN2CCOCC2)ccc1OCc1ccc(Cl)cc1Cl	103	7.0*	-34	4	i	15*	17*	8
COc1cc(CNCc2ccccn2)ccc1OCc1ccc(Cl)cc1Cl	115	9.9*	11	·	i	17*	15	12
COc1cc(CNCCN2CCOCC2)ccc1OCc1cccc(Cl)c1	103	0	23	-20	i	·	·	·
O=c1c(O[C@H]2O[C@@H](CO)[C@H](O)[C@@H](O)[C@@H]2O)c(-c2ccc(O)cc2)oc2cc(O)cc(O)c12	98	1	-2	-17	·	·	·	·
O=c1c(OC2OC(CO)C(O)C(O)C2OC2OC(CO)C(O)C(O)C2O)c(-c2ccc(O)cc2)oc2cc(O)cc(O)c12 (stereo not given)	103	7.1*	12	-9	·	22*	-3	23*
Nc1nc2n(n1)C(c1ccco1)CC(c1ccc(Cl)cc1Cl)N2 (stereo not given)	·	9.6*	3	·	i	18*	5	1
Nc1nc2n(n1)C(c1ccco1)CC(c1ccc(Cl)cc1)N2 (stereo not given)	102	1	-3	-22	i	·	·	·
CC(=O)N(C)C[C@H]1Oc2ncc(-c3cccc(F)c3)cc2C(=O)N([C@@H](C)CO)C[C@@H]1C	·	·	·	5	·	·	·	·
CCn1c(NCc2cc(OC)ccc2OC)nc2ccccc21	105	9.8*	19	-2	i	20*	2	4
CCn1c(NCc2cccc(OC)c2OC)nc2ccccc21	96	1	-2	-16	i	·	·	·

Rewritten with two lines to a compound: part of the list above
Each structure is followed by: DSG3 Ab inh, TbMetRS inhib, Arrestin-AP2 inh, Yeast UUG start, Rce1 inh, Tb MetRS conf, Jurkat cytotox, TbMetRS FP orth
> O=c1c(OC2OC(CO)C(O)C(O)C2OC2OC(CO)C(O)C(O)C2O)c(-c2ccc(O)cc2)oc2cc(O)cc(O)c12 (stereo not given)
→ 103, 7.1*, 12, -9, ·, 22*, -3, 23*
> Nc1nc2n(n1)C(c1ccco1)CC(c1ccc(Cl)cc1Cl)N2 (stereo not given)
→ ·, 9.6*, 3, ·, i, 18*, 5, 1
> Nc1nc2n(n1)C(c1ccco1)CC(c1ccc(Cl)cc1)N2 (stereo not given)
→ 102, 1, -3, -22, i, ·, ·, ·
> CC(=O)N(C)C[C@H]1Oc2ncc(-c3cccc(F)c3)cc2C(=O)N([C@@H](C)CO)C[C@@H]1C
→ ·, ·, ·, 5, ·, ·, ·, ·
> CCn1c(NCc2cc(OC)ccc2OC)nc2ccccc21
→ 105, 9.8*, 19, -2, i, 20*, 2, 4
